From patent US20110021530A1, “PYRIDAZINE DERIVATIVES AND THEIR USE AS THERAPEUTIC AGENTS IN THE TREATMENT OF SKIN DISORDERS” (XENON PHARMACEUTICALS INC., priority 2008, published 2011)

Target: T1, SCD (Mus musculus, UniProt P13516)
T1 sequence (P13516 1-355): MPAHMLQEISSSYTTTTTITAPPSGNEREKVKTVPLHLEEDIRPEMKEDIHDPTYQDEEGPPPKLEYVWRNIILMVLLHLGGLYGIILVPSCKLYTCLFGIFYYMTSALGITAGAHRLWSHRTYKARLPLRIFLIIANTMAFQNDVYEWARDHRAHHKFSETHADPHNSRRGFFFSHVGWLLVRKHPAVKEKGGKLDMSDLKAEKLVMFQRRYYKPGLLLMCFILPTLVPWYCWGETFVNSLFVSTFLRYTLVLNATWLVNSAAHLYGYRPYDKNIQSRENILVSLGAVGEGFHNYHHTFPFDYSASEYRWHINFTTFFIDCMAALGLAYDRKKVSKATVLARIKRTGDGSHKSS
Assay: Mouse SCD IC50 determination for compounds active in the HTS assay
Type: biochemical

IC50: 20 nM
SMILES: O=C(NCCc1ccccc1)c1ccc(N2CCN(C(=O)c3ccccc3C(F)(F)F)CC2)nn1 [6-[4-(2-Trifluoromethylbenzoyl)piperazin-1-yl]pyridazine-3-carboxylic acid phenethylamide]
